Data as given in patent US20060252045A1, “Methods and materials for identifying agents which modulate bone remodeling and agents identified thereby” (priority 2003, published 2006).

Columns and labels:
[1] = test system: β-catenin; test: Mouse calvarial model: β-catenin immunohistochemistry; conditions: in vivo
[2] = test system: Dkk1 suppressed Wnt1/Wnt 3A TCF-signal in U2OS cells; test: Release of Dkk1 mediated inhibition of TCF-signal in U2OS cells; assay type: cell-based, human
Protocol: The final readout is activation of Dkk1 mediated suppressed TCF-signal. […] The experiment represented in FIG. 2 involved U2OS (ATCC) bone cells and is based on the endogenous expression of LRP5/6 receptors. […] 10 μL of the 15× stock was added per well along with appropriately diluted vehicle (i.e., DMSO) control.

[3] = test system: load- and Wnt-response genes in tibiae; conditions: mouse, in vivo

O=C1NC(=O)C(c2ccccc2[N+](=O)[O-])=C1Nc1ccc(O)c(Cl)c1 [iGSK-3, 3-(3-chloro-4-hydroxyphenylamino)-4-(2-nitrophenyl)-1H-pyrrole-2,5-dione]
β-catenin expression in osteoblastic cells lining the periosteum [1]: strong β-catenin expression
release of Dkk1 suppression of TCF-signal, Wnt1 [2]: released almost completely
expression of Cox2, eNos, Wnt10B, SFRP1, Cx43, CCND1 and Fzd2 in the presence of load compared to vehicle treatment [3]: synergistically induced
transcriptional changes in tibiae, low dose versus high dose [3]: dose-dependent trend
